The values below come from patent US20010021514A1, “Luminescent metal-ligand complexes” (priority 1999, published 2001).

The subject of data set [1] is nonspecific antibody (IgG). As to the kind of experiment: Steady-state luminescence polarization titration of labeled HSA with nonspecific antibody (control). In kind it is binding, human. The note with it: control sample using nonspecific antibody. As for the experimental part: Here, changes in the steady-state polarization of SVR^−IHSA in the presence of various amounts of polyclonal antibody were measured using an Analyst™ light detection platform (LJL BioSystems, Inc.). Specifically, 30 nM of SVR-HSA were premixed with increasing amounts of anti-HSA to yield molar ratios of antigen: antibody of 1:0, 1:0.25, 1:0.5, 1:0.75, 1:1, 1:2, and 1:3. For background correction, an analogous set of samples was prepared using unlabeled HSA. For a nonspecific control, an analogous set of samples was prepared using SVR-HSA and nonspecific anti-HSA antibodies. The various mixtures were incubated for 30 minutes at room temperature. After incubation, the mixtures were transferred in triplicates to a 96-well microplate (Coming Costar), along with PBS (10 mM) and a 10 nM fluorescein reference. Polarizations were measured using the Analyst™ light detection platform. The polarization in mP was calculated for each sample using the formula: [formula]
(§1) Here, G is a “G factor” that corrects for various instrument artifacts. The G factor is calculated from a known polarization of a standard fluorophore (e.g., fluorescein).
HSA and nonspecific human IgG were obtained from Sigma Chemical Company. Polyclonal IgG specific for HSA (goat anti-HSA) was obtained from O.E.M. Concepts. All other starting reagents were obtained from Aldrich Chemical Company. […]

The test system of data set [2] is goat-anti-HSA (IgG) antibodies. As to the kind of experiment: Steady-state luminescence polarization titration of labeled HSA with anti-HSA antibody (Analyst platform). In kind it is binding.
Source text: Aspects of the invention include the use of selected long-lifetime metal-ligand complexes in luminescence polarization assays. Here, as elsewhere in the application, polarization assays encompass any assays involving detection of polarized light, including steady-steady and time-resolved assays, and computation of polarization and anisotropy functions, among others. […] Here, the invention was used without limitation to monitor interactions between human serum albumin (HSA) and goat-anti-HSA (IgG) antibodies. The HSA was labeled with a ruthenium-ligand complex polarization probe, Sunnyvale Red™ (SVR™), as described elsewhere in this application. SVR is a preferred polarization probe because it combines long-wavelength absorption and emission and a 200-nm Stokes' shift with a high intrinsic polarity and a long luminescence lifetime (τ=360 ns). The excitation maximum of this dye is 487 nm, so that SVR is ideally suited for excitation with an argon ion laser. The intrinsic polarization P0 is 0.36 for free SVR, and 0.38 for HSA-labeled SVR (corresponding to fundamental anisotropies of 0.27 and 0.29, respectively). These values were determined by measuring the excitation polarization spectra in vitrified solution (glycerol: water=6:4; −55° C.).
Here, changes in the steady-state polarization of SVR^−IHSA in the presence of various amounts of polyclonal antibody were measured using an Analyst™ light detection platform (LJL BioSystems, Inc.). Specifically, 30 nM of SVR-HSA were premixed with increasing amounts of anti-HSA to yield molar ratios of antigen: antibody of 1:0, 1:0.25, 1:0.5, 1:0.75, 1:1, 1:2, and 1:3. For background correction, an analogous set of samples was prepared using unlabeled HSA. […] Polarizations were measured using the Analyst™ light detection platform. The polarization in mP was calculated for each sample using the formula: [formula]
as §1

Data set [3] can be described thus: Intrinsic polarization from excitation polarization spectra in vitrified solution. The conditions noted are these: excitation polarization spectra in vitrified solution (glycerol: water=6:4; −55° C.). Type of data set: physicochemical. From the text:
Aspects of the invention include the use of selected long-lifetime metal-ligand complexes in luminescence polarization assays. Here, as elsewhere in the application, polarization assays encompass any assays involving detection of polarized light, including steady-steady and time-resolved assays, and computation of polarization and anisotropy functions, among others. […] Here, the invention was used without limitation to monitor interactions between human serum albumin (HSA) and goat-anti-HSA (IgG) antibodies. The HSA was labeled with a ruthenium-ligand complex polarization probe, Sunnyvale Red™ (SVR™), as described elsewhere in this application. […] These values were determined by measuring the excitation polarization spectra in vitrified solution (glycerol: water=6:4; −55° C.).

Consider “SVR-labeled HSA: human serum albumin labeled with the ruthenium-ligand complex polarization probe Sunnyvale Red”, for which the “change of polarization with nonspecific antibody” value in data set [1] is “does not increase significantly”. Besides, the “steady-state polarization of the saturated immune complex” value in data set [2] (30 nM SVR-HSA with anti-HSA, antigen: antibody up to 1:3) is listed as “about 165 mP”. Also, the “steady-state polarization in the absence of antibody” value in data set [2] (30 nM SVR-HSA, 30 minutes at room temperature) was “about 50 mP”. In addition, in data set [2] (30 nM SVR-HSA, anti-HSA titration), the “increase of polarization on titration with specific antibody” value is on record as “more than 100 microplate”. Moreover, the “intrinsic polarization P0” value in data set [3] was 0.38.
